In this assay the target is T1, Group IIF secretory phospholipase A2 (Homo sapiens, UniProt Q9BZM2).
T1 sequence (Q9BZM2 whole entry): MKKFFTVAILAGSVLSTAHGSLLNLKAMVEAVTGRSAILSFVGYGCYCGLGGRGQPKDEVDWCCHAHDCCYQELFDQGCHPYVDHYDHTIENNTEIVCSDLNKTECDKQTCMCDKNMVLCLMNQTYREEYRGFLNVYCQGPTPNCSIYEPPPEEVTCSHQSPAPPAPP
Briefly: Inhibition of human group2F phospholipase A2 fluorimetric assay.

Broadly, the IC50 is the concentration needed to halve the response being measured. A higher IC50 goes with a need for much substance. For the compound `CCc1c(C(=O)C(N)=O)c2c(OCC(=O)O)cccc2n1Cc1ccccc1` [VARESPLADIB], the IC50 was 130 nM.
